Here are results for 1 compound from article PMC6471342, “Synthesis of Thymidine Phosphorylase Inhibitor Based on Quinoxaline Derivatives and Their Molecular Docking Study” (Molecules, 2019).

Sequences of proteins named here, by UniProt entry; tags and fusion partners are left off. A change or cut given only in a name is not applied to a line headed by its entry.
UniProt P07650: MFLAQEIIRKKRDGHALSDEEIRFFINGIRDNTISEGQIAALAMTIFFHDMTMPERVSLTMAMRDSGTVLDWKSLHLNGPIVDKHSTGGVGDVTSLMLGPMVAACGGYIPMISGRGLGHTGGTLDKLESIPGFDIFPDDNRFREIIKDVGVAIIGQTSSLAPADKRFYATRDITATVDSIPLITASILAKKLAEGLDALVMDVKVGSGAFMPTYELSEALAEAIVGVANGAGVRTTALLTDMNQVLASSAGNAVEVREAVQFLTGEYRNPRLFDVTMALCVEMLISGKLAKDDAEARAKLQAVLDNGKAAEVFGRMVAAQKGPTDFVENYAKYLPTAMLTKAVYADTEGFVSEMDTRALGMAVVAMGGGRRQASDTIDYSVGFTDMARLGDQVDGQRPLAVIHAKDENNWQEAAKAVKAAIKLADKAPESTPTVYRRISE

A word on the IC50: it is the concentration that inhibits the measured activity by half.

For the experiment, the target named is T1, thymidine phosphorylase/PD-ECGF (E. coli) (Escherichia coli, UniProt P07650).
T1 construct: purchased
Kind of experiment: Thymidine phosphorylase inhibition assay (absorbance at 290 nm). The format is biochemical. The conditions noted are these: Table 1; triplicate; read-out: IC50 (µM ± SEM). As for the experimental part:
Since human TP is not easy to obtain, we used commercially available recombinant E. coli TP. The primary sequence of TP is frequently preserved throughout evolution as mammalian TP is reported to share 39% sequence resemblance with the TP of E. coli. The mammalian enzyme also shared up to 70% resemblance with the active site residues, and three-dimensional structure of E. coli TP enzyme. The thymidine phosphorylase/PD-ECGF (E. coli) activity was determined by measuring the absorbance at 290 nm spectrophotometrically. The method was described in [50, 51]. In brief, the total reaction mixture of 200 µL contained 145 µL of potassium phosphate buffer (pH 7.4), 30 µL of enzyme (human and E. coli) at concentration 0.05 and 0.002 U, respectively, were incubated with 5 µL of test materials for 10 min at 25 °C in a microplate reader. After incubation, a pre-read at 290 nm was taken to deduce the absorbance of substrate particles. The substrate (20 µL, 1.5 mM), dissolved in potassium phosphate buffer, was immediately added to the plate and continuously read after 10, 20, and 30 min in a microplate reader (SpectraMax, Molecular Devices, CA, USA). […]
Reactions for above mentioned biological activities were carried out in triplicate. […] The percent inhibition for above mentioned biological activities was calculated by following formula:Percent Inhibition = 100 − (ODtest compound/ODcontrol) × 100(1)

`O=c1[nH]c(=O)c2cc[nH]c2[nH]1` [7-Deazaxanthine, reference compound]: the IC50 was 38.7 ± 4.42 µM.
